IC50 data for three compounds are collected here from US8686152B2, “4,4-disubstituted piperidine derivatives useful as inhibitors of dipeptidyl peptidase-1 (DPP-1)” (Janssen Pharmaceutica NV, priority 2010, dated 2014).

Sequences of proteins named here, by UniProt entry; tags and fusion partners are left off. Residues count along the entry.
UniProt P53634, 25-463 limits assumed: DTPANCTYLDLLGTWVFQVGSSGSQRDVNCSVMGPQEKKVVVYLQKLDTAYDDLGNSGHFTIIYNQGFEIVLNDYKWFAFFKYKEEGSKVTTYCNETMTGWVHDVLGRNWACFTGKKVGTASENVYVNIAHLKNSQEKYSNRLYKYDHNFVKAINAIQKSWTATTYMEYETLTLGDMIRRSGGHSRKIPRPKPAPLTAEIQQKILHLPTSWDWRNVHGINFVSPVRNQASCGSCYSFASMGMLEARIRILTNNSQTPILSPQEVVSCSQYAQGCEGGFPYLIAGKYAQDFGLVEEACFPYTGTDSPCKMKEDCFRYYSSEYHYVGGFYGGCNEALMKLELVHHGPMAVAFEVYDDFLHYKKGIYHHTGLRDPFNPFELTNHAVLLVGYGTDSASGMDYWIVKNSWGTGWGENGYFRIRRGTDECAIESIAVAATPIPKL

Usually IC50 stands for the concentration at which inhibition is half-maximal.

The target in the assay is recombinant human DPP-1 (Cathepsin C) (Homo sapiens, UniProt P53634). The assay can be described thus: DPP-1 Inhibition Assay (In Vitro), fluorogenic substrate GR-AMC. The settings on record: read-out: DPP-1 Inhibition IC50; 0.15 nM DPP-1, 10 uM GR-AMC, pH 7.0, room temperature; average value where tested multiple times. Here is the method:
Test compounds were assessed for DPP-1 (Cathepsin C) inhibitory activity using a fluorogenic substrate, GR-AMC (Glycine-Arginine-amino-4-methylcoumarin, Bachem, I-1215). The amount of amino-methylcoumarin released is proportional to the DPP-1 activity, and the reaction is monitored kinetically with a Molecular Devices plate reader using black 96-well plates.
All compounds were tested under room temperature conditions. The assay buffer consisted of 50 mM HEPES, pH 7.0, 100 mM NaCl, 2 mM glutathione (GSH), and 0.002% TWEEN 20. GSH and TWEEN 20 were added to the buffer fresh daily. Just prior to use, an in-house preparation of recombinant human DPP-1 (240 μM stock, MW 49.6 kD) was diluted 600-fold in assay buffer containing fresh 2 mM dithiothreitol (DTT) to activate the enzyme, then diluted into assay buffer (without DTT) 133-fold for a DPP-1 working solution of 3 nM. Test compounds were diluted in DMSO for 20× their final assay concentrations.
Additions to a 96-well black Costar 3915 plates were as follows: 90 μL of 11 μM GR-AMC, 5 μL test compound (followed by mixing), and 5 μL 3 nM DPP-1 to start the reaction. Fluorescent reactions were monitored kinetically at 360 nm excitation, 440 nm emission on a Molecular Devices Spectramax XPS reader. The Softmax Pro software of the reader determined the initial velocity of the selected data (the first 3-5 minutes of the reaction), and the best linear regression fit of the initial kinetic data. Final assay conditions were 0.15 nM DPP-1, 10 uM GR-AMC, 50 mM HEPES, pH 7.0, 100 mM NaCl, 2 mM GSH, 0.002% TWEEN 20, 1 uM DTT, 5.0% DMSO. Initial velocity rates were plotted vs. test compound concentration by use of a four-parameter logistics equation (nonlinear regression, sigmoidal dose-response (variable slope), with fixed Hill (1.0) using GraphPad Prism® software for determination of DPP-1 IC50. Within-run assay coefficient of variation (CV) was generally <10%; between-run CV <20%.
Representative compounds of the present invention were tested according to the procedure as described above, with results as listed in Table 5, below.

As for `N[C@@H](Cn1cncn1)C(=O)N1CCC(Cc2ccc(-c3ccccc3)cc2)(C(=O)NC2CCCCC2)CC1`, the IC50 is 20 µM. As for `C#CC[C@H](N)C(=O)N1CCC(Cc2ccc(-c3ccccc3)cc2)(C(=O)NC2CCCCC2)CC1`, the IC50 is more than 20 µM. In the case of `CS(=O)(=O)CC[C@H](N)C(=O)N1CCC(Cc2ccc(I)cc2)(C(=O)NC2CCCCC2)CC1`, the IC50 was more than 20 µM.
